# This list holds what a sample rich in highest values left over.
# Assays:
# [1] = test system: RAW-Dual; assay: IRF Lucia reporter activity, fold change vs agonist alone; higher = enhanced IRF activity; conditions: library stock concentration (final ~1000-fold dilution): 10 mM, cytotoxicity flag (confluency mask): not cytotoxic
# Method in brief: (§1)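 After 50 nL of library stock was delivered by pin tool to RAW-Dual macrophages (50,000 cells/well, DMEM, 384-well plates), a PRR agonist was added 1 h later and the plates were kept at 37 °C, 5% CO2. Twenty hours later, IRF was read from supernatant by QuantiLuc luminescence and NF-κB by QuantiBlue absorbance at 620 nm. Reporter activity is stated as fold change over agonist-alone wells. Wells with IncuCyte confluency under 70% of agonist controls in both mask sets were counted as cytotoxic.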
# [2] = test system: RAW-Dual; assay: NF-kB SEAP reporter activity, fold change vs agonist alone; higher = enhanced NF-kB activity; conditions: library stock concentration (final ~1000-fold dilution): 10 mM, cytotoxicity flag (confluency mask): not cytotoxic
# Method in brief: as §1
# [3] = agonist: MPLA (TLR4) 0.25 ug/mL
structure (smiles),measurement,setting,value
COc1cc(Br)c(C[N+]2(CCOCCC3CCC4CC3C4(C)C)CCOCC2)cc1OC (centres undefined),IRF Lucia reporter activity,[1]; agonist: 3'3'-cGAMP (STING) 10 ug/mL,0.368
same,IRF Lucia reporter activity,[1]; agonist: LPS (TLR4) 0.1 ug/mL,1.31
same,IRF Lucia reporter activity,[1]; [3],2.04
same,NF-kB SEAP reporter activity,[2]; agonist: Imiquimod (TLR7) 2.5 ug/mL,1.39
same,NF-kB SEAP reporter activity,[2]; agonist: LPS (TLR4) 0.1 ug/mL,1.01
same,NF-kB SEAP reporter activity,[2]; [3],1.43
same,NF-kB SEAP reporter activity,[2]; agonist: ODN 1826 (TLR9) 0.5 ug/mL,0.599
same,NF-kB SEAP reporter activity,[2]; agonist: Pam2CSK4 (TLR2/6) 0.1 ug/mL,0.725
same,NF-kB SEAP reporter activity,[2]; agonist: Pam3CSK4 (TLR2/1) 0.1 ug/mL,0.753

# From the supplement of paper PMC10037445
